25 molecules from PubChem BioAssay AID488862 (Broad Institute, 2010) can be followed below.

The structures appear in SMILES notation. The entries are a selection whose mix differs from that of the whole data set. Some tests of the compounds listed are not included; inactive here does not mean inactive elsewhere. Activity calls are given as the source filed them. No stated cut-off is given here; in the data, active means inhibition above about 52%; inactive means the rest.

This assay is described as follows: suppresses PrP 5' UTR mRNA reporter expression (AID 488862). Further: 0 = median of the neutral control wells. As to conditions: cell-based PrP 5' UTR mRNA reporter, plate reader; hits give high values; concentration not given here.
For the molecule `CC(C)N1C(=O)CC2(CCN(CCOC(=O)C(O)(c3ccccc3)c3ccccc3)CC2)C1=O`, the inhibition is inactive: -17.3%. Under `CCN(CC)CC(C)C(C)OC(=O)C(O)(c1ccccc1)c1ccccc1` (stereo not given) stands inactive: -0.48%; under `COc1cc(SC)ccc1C(=O)NCC1(N(C)C)CCCCC1`, inactive: -23.9%; under `Cc1ccc(C(=O)NCC2(N3CCCCC3)CCCCC2)cc1`, inactive: -9.65%. Under `O=C(NCC1(N2CCCCC2)CCCCC1)c1cc([N+](=O)[O-])ccc1Cl` stands inactive: 15.2%. As for `CN1[C@@H]2CC[C@H]1CC(OC(=O)C(O)(c1ccccc1)c1ccccc1)C2` (stereo not given in full), the inhibition is inactive: -17%.

For the molecule `C=CCN1CCN(CCOC(=O)C(O)(c2ccccc2)c2ccccc2)CC1`, the inhibition is inactive: -9.51%. Under `O=C(NCC1(N2CCCCC2)CCCCC1)c1cc(F)c(F)cc1Cl` stands inactive: -18.5%; under `CCN1CCCC(OC(=O)C2(O)c3ccccc3C=Cc3ccccc32)C1` (stereo not given), inactive: -9.34%. `Cc1cc(C(=O)NCC2(N3CCCCC3)CCCCC2)ccc1[N+](=O)[O-]`: the inhibition was inactive: -10%.

For the molecule `O=C(NCC1(N2CCCCC2)CCCCC1)c1cccc(Br)c1`, the inhibition is inactive: -14.4%. Regarding `COc1ccc(C(=O)NCC2(N(C)C)CCCCC2)cc1`, the inhibition is inactive: -17.9%. With `Cc1ccccc1C(=O)NCC1(N2CCCCC2)CCCCC1` the figure was inactive: -23.7%; with `CN(C)c1ccc(C(=O)NCC2(N(C)C)CCCCC2)cc1`, inactive: -18.4%. With `CN(C)C1CCCC1OC(=O)C(O)(c1ccccc1)c1ccccc1` (stereo not given) the figure was inactive: -10.6%; with `COc1cccc(C(=O)NCC2(N3CCCCC3)CCCCC2)c1`, inactive: -19.5%. In the case of `COc1ccc(Cl)cc1C(=O)NCC1(N(C)C)CCCCC1`, the inhibition is inactive: -11.3%. Under `O=C(NCC1(N2CCCCC2)CCCCC1)c1cccc(Cl)c1` stands inactive: 6.84%. On to `CN(C)C1(CNC(=O)c2ccc(Br)cc2)CCCCC1`, for which the inhibition is inactive: -20.8%. Under `COc1cc(C(=O)NCC2(N(C)C)CCCCC2)c([N+](=O)[O-])cc1OC` stands inactive: -9.39%; under `COc1ccc(Br)c(C(=O)NCC2(N3CCCCC3)CCCCC2)c1`, inactive: -12.2%. Under `CN(C)c1cccc(C(=O)NCC2(N(C)C)CCCCC2)c1` stands inactive: -42.8%. With `CC(C)Oc1ccc(C(=O)NCC2(N(C)C)CCCCC2)cc1`, the inhibition was inactive: 2.77%.

Turning to `O=C(OCCN1CCCC1)C(O)(c1ccccc1)c1ccccc1`, the inhibition was inactive: -20.2%. With `O=C(OC1CN2CCC1CC2)C(CO)(c1ccccc1)c1ccccc1` (stereo not given) the figure was inactive: -2.67%.
